# Permeability data for macrocyclic peptides

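Conditions beyond the assay type are not listed; see the original paper. Other peptides of the study may be missing here. Peptides that the database sets to -10, its floor, are left out.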

PAMPA measures passive passage through an artificial lipid membrane.
Permeability is in 10^-6 cm/s, converted from the database's log10 values; higher is more permeable.

compound,PAMPA (10^-6 cm/s)
CC(C)C[C@@H]1NC(=O)[C@@H]2CCCN2C(=O)[C@H](CC(C)C)NC(=O)[C@@H](CC(C)C)N(C)C(=O)[C@H](C)N(C)C(=O)[C@H](Cc2ccccc2)NC1=O,1.7
CC(C)C[C@@H]1C(=O)N[C@H](CC(C)C)C(=O)N2CCC[C@@H]2C(=O)N(C)[C@H](CC(C)C)C(=O)N[C@@H](Cc2ccccc2)C(=O)N2CCC[C@@H]2C(=O)N[C@@H](Cc2ccccc2)CC(=O)N1C,4.7
CC(C)C[C@@H]1NC(=O)[C@@H](C)NC(=O)[C@H](Cc2ccccc2)NC(=O)[C@@H](CC(C)C)NC(=O)[C@H]2CCCN2C(=O)[C@H](CC(C)C)NC1=O,0.46
CC(C)C[C@@H]1C(=O)N[C@@H](Cc2ccccc2)C(=O)N2CCC[C@@H]2C(=O)N(C)[C@@H](C)C(=O)N(Cc2ccccc2)CC(=O)N(C)[C@@H](CC(C)C)C(=O)N2CCC[C@@H]2C(=O)N1C,3.1
CC(C)C[C@@H]1NC(=O)[C@H](C)N(C)C(=O)[C@H]2CCCN2C(=O)[C@H](Cc2ccccc2)NC(=O)[C@H](CC(C)C)N(C)C(=O)[C@@H]2CCCN2C(=O)[C@H](CC(C)C)N(C)C1=O,9.8
CC(C)C[C@@H]1NC(=O)C[C@H](Cc2ccccc2)NC(=O)[C@H]2CCCN2C(=O)[C@H](Cc2ccccc2)NC(=O)[C@H](CC(C)C)N(C)C(=O)[C@H]2CCCN2C(=O)[C@H](CC(C)C)N(C)C1=O,4
CC(C)C[C@@H]1NC(=O)[C@H]2CCCN2C(=O)CN(Cc2ccccc2)C(=O)[C@@H](CC(C)C)N(C)C(=O)[C@H](C)N(C)C(=O)[C@H](Cc2ccccc2)NC1=O,2.5
CCCN1CC(=O)N[C@@H](CC(C)C)C(=O)N[C@@H](CC(C)C)C(=O)N2CCC[C@H]2C(=O)N[C@H](CC(C)C)C(=O)N[C@@H](Cc2ccccc2)C(=O)N2CCC[C@@H]2C1=O,0.81
CC(C)C[C@@H]1NC(=O)C[C@H](Cc2ccccc2)NC(=O)[C@H](Cc2ccccc2)NC(=O)[C@@H](CC(C)C)NC(=O)[C@H]2CCCN2C(=O)C[C@H](Cc2ccccc2)NC1=O,11
CC(C)C[C@@H]1C(=O)N(Cc2ccccc2)CC(=O)N2CCC[C@H]2C(=O)N(C)[C@H](CC(C)C)C(=O)N[C@@H](Cc2ccccc2)C(=O)N2CCC[C@@H]2C(=O)N(C)[C@@H](C)C(=O)N1C,7.1
CC(C)C[C@@H]1C(=O)N2CCC[C@H]2C(=O)N(C)[C@@H](CC(C)C)C(=O)N[C@@H](Cc2ccccc2)C(=O)N2CCC[C@@H]2C(=O)N[C@H](C)C(=O)N(C)[C@@H](CC(C)C)C(=O)N1C,5.9
CC(C)C[C@@H]1C(=O)N2CCC[C@H]2C(=O)N(C)[C@@H](CC(C)C)C(=O)N[C@@H](Cc2ccccc2)C(=O)N2CCC[C@@H]2C(=O)N(C)[C@H](C)C(=O)N[C@H](CC(C)C)C(=O)N1C,12
CC(C)C[C@@H]1NC(=O)[C@@H](C)N(C)C(=O)[C@@H]2CCCN2C(=O)[C@H](Cc2ccccc2)NC(=O)[C@@H](CC(C)C)N(C)C(=O)[C@H]2CCCN2C(=O)[C@H](CC(C)C)NC1=O,1.2
CC(C)C[C@H]1C(=O)N(Cc2ccccc2)CC(=O)N2CCC[C@@H]2C(=O)N(C)[C@@H](CC(C)C)C(=O)N[C@@H](Cc2ccccc2)C(=O)N[C@@H](C)C(=O)N1C,0.63
CC(C)C[C@@H]1C(=O)N[C@@H](Cc2ccccc2)C(=O)N2CCC[C@H]2C(=O)N[C@@H](Cc2ccccc2)CC(=O)N(C)[C@@H](CC(C)C)C(=O)N(C)[C@@H](CC(C)C)C(=O)N2CCC[C@H]2C(=O)N1C,2.8
CC(C)C[C@@H]1NC(=O)[C@H](C)N(C)C(=O)[C@H]2CCCN2C(=O)[C@H](Cc2ccccc2)NC(=O)[C@@H](CC(C)C)NC(=O)[C@H]2CCCN2C(=O)[C@H](CC(C)C)N(C)C1=O,1.7
CC(C)C[C@@H]1NC(=O)[C@H]2CCCN2C(=O)[C@H](CC(C)C)N(C)C(=O)[C@H](CC(C)C)NC(=O)[C@@H](C)N(C)C(=O)[C@H](Cc2ccccc2)NC1=O,5.1

Collected by the curators of CycPeptMPDB (Li et al. 2023) from Townsend et al. 2020, doi:10.26434/chemrxiv.13335941.v1.